Measured values taken from patent US6117645A, “Human LH-RH receptor expression cells and use thereof” (Takeda Chemical Industries, Ltd., priority 1994, dated 2000).

Key:
Type in all cases: cell-based
human LH-RH receptor [1] = target: T1, human LH-RH receptor (Homo sapiens, UniProt P30968); test: Intracellular calcium concentration (fura-2) on LH-RH stimulation of CHO/L39-7 cells; settings: fura-2 fluorescence ratio 340/380 nm, FIG. 4
T1 construct: cell membrane fraction or whole cells
T1 sequence (P30968 1-328): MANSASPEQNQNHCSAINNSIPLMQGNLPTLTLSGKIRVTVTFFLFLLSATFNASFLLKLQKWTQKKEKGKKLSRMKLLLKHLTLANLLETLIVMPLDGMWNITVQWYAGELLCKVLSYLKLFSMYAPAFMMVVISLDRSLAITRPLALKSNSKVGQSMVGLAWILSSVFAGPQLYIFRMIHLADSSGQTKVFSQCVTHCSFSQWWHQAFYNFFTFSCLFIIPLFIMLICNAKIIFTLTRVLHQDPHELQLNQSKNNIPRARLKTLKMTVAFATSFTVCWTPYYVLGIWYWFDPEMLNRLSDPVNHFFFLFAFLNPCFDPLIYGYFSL
Experimental: Changes in intercellular calcium concentration were examined by use of a specific fluorescent material (fura-2). The human LH-RH receptor expression CHO cells were cultivated on a 6-cm dish tiled with cover glass for 3 days. The cells were washed three times with a calcium assay buffer (Hanks' solution containing 0.1% BSA), and 2.5 ml of the same buffer containing 4 μM fura-2 was added thereto, followed by standing at room temperature for 90 minutes. After washing three times with the buffer, the cover glass was transferred to a cuvette, and the assay was conducted with a fluorescence spectrophotometer (FIG. 4).

human LH-RH receptor [2] = target: T1, human LH-RH receptor; test: Inositol phosphate production ([3H]inositol labeling) on LH-RH stimulation of CHO/L39-7 cells; settings: 37° C., 10 minutes, FIG. 5
Experimental: The concentration of inositol phosphate (IPS) was measured by labeling the cells with [^3 H] inositol. The human LH-RH receptor expression CHO cells (4×10^4 cells) were cultivated on a 24-well plate for 48 hours, and 2.5 μCi per well of myo [2-^3 H] inositol (Amersham) was added thereto, followed by further cultivation for 24 hours. The cells were washed with an IP assay buffer [20 mM HEPES (pH 7.4), 140 mM NaCl, 4 mM KCl, 1 mM NaH2 PO4, 1 mM MgCl2, 1.25 mM CaCl2, 10 mM LiCl, 10 mM glucose, 0.1% BSA], and the same buffer was added thereto, followed by standing at 37° C. for 30 minutes. The medium was changed with 500 μl of the same buffer, and LH-RH was added thereto, followed by reaction at 37° C. for 10 minutes. Then, 100 μl of 10% perchloric acid was added, and the mixture was allowed to stand at 0° C. for 30 minutes. Thereafter, 150 μl of 1.53 M KOH and 75 mM HEPES was added thereto for neutralization. After further standing at 0° C. for 30 minutes, the product was centrifuged, and the supernatant was purified through an anion exchange column (AG1-X8). The column was washed with H2 O and a washing solution (5 mM sodium tetraborate, 60 mM ammonium formate), and then, eluted with 1 M formic acid and 0.1 M ammonium formate. The radioactivity of the eluate was assayed with a liquid scintillation counter (LSC) (FIG. 5).

human LH-RH receptor [3] = target: T1, human LH-RH receptor; test: Arachidonic acid release ([3H]arachidonic acid labeling) on LH-RH stimulation of CHO/L39-7 cells; settings: 37° C., 15 minutes, FIG. 6
Experimental: The concentration of arachidonic acid was measured by labeling the cells with [^3 H] arachidonic acid. The human LH-RH receptor expression CHO cells (4×10^4 cells) were cultivated on a 24-well plate for 48 hours, and 0.25 μCi per well of [5,6,8,9,11,12,14,15-^3 H] arachidonic acid (Amersham) was added thereto, followed by further cultivation for 24 hours. The cells were washed with an arachidonic acid assay buffer [DMEM medium containing 20 mM HEPES (pH 7.4) and 0.2% BSA], and the same buffer was added thereto, followed by standing at 37° C. for 30 minutes. The medium was changed with 500 μl of the same buffer, and LH-RH was added thereto, followed by standing at 37° C. for 15 minutes. Then, the radioactivity of the supernatant was assayed with an LSC (FIG. 6).

LH-RH: luteinizing hormone-releasing hormone, a peptide consisting of 10 amino acids; LH-RH receptor agonist
observed: increase of intracellular Ca2+ (human LH-RH receptor [1]) | production of IPS due to LH-RH stimulation (human LH-RH receptor [2]) | release of arachidonic acid (human LH-RH receptor [3])
